Bioassay records deposited in PubChem BioAssay by National Center for Advancing Translational Sciences (NCATS).
miR-21 FLuc – raises the signal of a miR-21 reporter | AID 2288 | 340,000 tested, under 10 active | Potency, µM (series often up to 38.3 µM), without a hit: at the highest dose reporter change, positive = more light | HeLa miR-21 FLuc reporter, luciferase, 48 h; active = well fitted rising curve with a large enough effect; inconclusive = small, poorly fitted or top-dose-only effect; inactive = no such curve, though single readings can be large or run the other way;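 further: % of control where 0% means no effect; miR-21 action dims this reporter so a rising signal means less miR-21 action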
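HeLa cells endogenously expressing miR-21, stably carrying CMV-driven firefly luciferase with a downstream miR-21 binding site, 2000 cells/well. Titrations up to approximately 40 uM, 48 hours; luciferase luminescence read.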
Nrf2 block – blocks Nrf2 signaling. A549 ARE-Fluc reporter, luciferase luminescence, 18-24 h. Potency, µM (highest dose often 46 µM), for the others: at the highest dose activity change, negative = inhibition, usual class: inhibitors. actives 2.1% (n = 360,000). AID 504444; note: potency is the fitted concentration of half-maximal effect; % is set by controls: 0 for no effect and ±100 for the full control effect; nearly all actives have a fitted effect of over 60% in size
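Nrf2 activity is the BugLite luminescence, read 15 min after reagent at room temperature, following CellTiter-Fluor cytotoxicity readout (30 min, 37C). Compound titrations were applied for 18-24 h to 5000 A549 ARE_Fluc cells/well in 5% FBS OPTI-MEM.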
Glioma ERSR ind – induces the endoplasmic reticulum stress response in human glioma cells; Potency, µM, inactives show top-dose activation, actives largely listed as activators; actives 0.02% (n = 420,000); AID 602332; U87-MG GRP78 promoter luciferase reporter, 16 h; note: potency is the fitted concentration of half-maximal effect; series mostly up to about 76 µM; % of control where 0% means no effect; nearly all actives have a fitted effect of over 35% in size
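Stably transfected U87-MG human glioma cells carrying a GRP78-based luminescent sensor were seeded at 1000 cells/well, pin-dosed with compounds and incubated 16 h. Luciferase reagent was then added, and end-point luminescence was read after 10 min at room temperature.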
Nrf2 ARE act – activators of Nrf2 (ARE) signaling | Potency, µM (highest dose often 46.1 µM), for the others: at the highest dose activation, usual class: activators | AID 624171 | AREc32 ARE-luciferase reporter (MCF7-derived line), luminescence, 24 h | actives 0.31% (n = 410,000); note: potency is the fitted concentration of half-maximal effect; % of control where 0% means no effect; nearly all actives have a fitted effect of over 65% in size
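Quantitative high-throughput format: AREc32 reporter cells, 1000 per well, received compound by pin transfer and were incubated 24 hr at 37 deg C, 5% CO2, before Steady-Glo luminescence detection.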
A549 tox – kills or reduces viability of A549 cells in Nrf2 counter-screen. actives 0.16% (n = 390,000). A549 ARE-Fluc cells, CellTiter-Fluor viability, 18-24 h. Potency, µM (doses to about 46 µM), for the others: at the highest dose activity change, negative = cytotoxicity, hits mostly inhibitors. AID 504648; note: potency is the fitted concentration of half-maximal effect; % is set by controls: 0 for no effect and ±100 for the full control effect
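A549 ARE-Fluc cells in 5% FBS OPTI-MEM, 5000 cells/well, rested 2 h then exposed to compounds in concentration-response for 18-24 h at 37 °C. Viability by CellTiter-Fluor fluorescence (Ex 405/Em 525) after 30 min; luciferase luminescence (BugLite, 15 min, RT) read afterwards.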
PTAP TSG101 blk – blocks PTAP/TSG101 interaction to inhibit HIV-1 budding; Q99816; 340,000 tested, under 10 active; Fluorescence polarization, FITC-PTAP peptide / Tsg101 binding; Potency, µM (highest dose often 115 µM), for inactives: top-dose activity change, negative = inhibition, hits mostly inhibitors; active = well fitted inhibition curve with a large enough effect in the main read-out, with a control signal flat, not every such curve was filed as active; inconclusive = small, poorly fitted or top-dose-only effect, or effect the other way, or a change in a side signal; inactive = no such curve, though single readings can be large or run the other way; note: potency is the fitted concentration of half-maximal effect; % of control where 0% means no effect
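Compounds were pin-transferred onto Tsg101 binding domain (10 uM final) in HEPES pH 7.5 buffer, then FITC-PTAP peptide was added at 50 nM final. After 20 min at RT, polarization reported peptide displacement across a qHTS concentration series.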
Active calls of the source: *; ? = inconclusive; / = no result given. The list is not random: actives were taken first. Their share in the collection is about 2.1%. Unless noted, calls come from the whole dose curve; as a rule, active = well fitted curve in the direction sought with a large enough effect; inconclusive = small, poorly fitted or top-dose-only effect, or another doubt; inactive = no such curve, though single readings can be large; an effect the other way counts as inactive or inconclusive.

SMILES | miR-21 FLuc | Nrf2 block | Glioma ERSR ind | Nrf2 ARE act | A549 tox | PTAP TSG101 blk
O=C(Nc1ccc2nc3n(c(=O)c2c1)CCCCC3)c1cccc(C(F)(F)F)c1 | -5% | 12µM* | -2% | 5% | -17% | /
O=C(c1cccc(C(F)(F)F)c1)C1CCCN(Cc2ccccc2O)C1 (stereo not drawn) | -1% | -4% | -3% | 0% | 1% | -13%
COc1ccc2c(c1)c(CC(=O)Nc1c(C)cccc1C)c(C)n2C(=O)c1ccc(Cl)cc1 | -1% | 23µM* | / | 1% | -20% | /
Cn1c(O)c(C=NCc2cccs2)c(=O)n(C)c1=O | 7% | -3% | -2% | 7% | 4% | -3%
Cc1ccccc1OCCN=Cc1c(O)n(C)c(=O)n(C)c1=O | -11% | 21µM* | 1% | 1% | -16% | -2%
Cc1cc(/C=C/c2cccc3sc(C)[n+](CCCCI)c23)ccc1N(CCCl)CCCl | / | / | -9% | / | / | /
N#CC(C#N)=NNc1ccc([N+](=O)[O-])cc1 | 11% | -3% | -1% | 8% | 21µM* | 9%
CCN(CC)S(=O)(=O)c1ccc(NN=C(C#N)C#N)cc1 | -1% | 14% | 8% | 8% | ? | -3%
Cc1ccc(Cl)cc1NC(=O)Cn1c(=O)oc2cc(S(=O)(=O)N3CCCCCC3)ccc21 | 0% | / | ? | -1% | -8% | /
Cc1cccc(C(=O)Nc2nnc(SCC(=O)NCc3ccco3)s2)c1 | / | 9% | 3% | 3.2µM* | 2% | 0%
O=C(CC1CCCCC1)N1CCC(c2nc(-c3ccc(S(=O)(=O)N4CCCC4)cc3)no2)CC1 | -2% | 21µM* | -3% | 0% | -22% | 3%
O=C(c1cc(S(=O)(=O)N2CCCCC2)ccc1F)N1CCC2(CC1)OCCO2 | -5% | 4% | -2% | -1% | 3% | -5%
CCC1OC2(C)C(O)C(/C=C/C=C/C=C/c3oc(=O)cc(OC)c3C)OC1(C)C2OC(C)=O (stereo not drawn) | / | / | 0% | / | / | /
CCn1nc(C)c(CN2CCCC(C(=O)c3cccc(OC(C)C)c3)C2)c1C (stereo not drawn) | 19% | 10µM* | -2% | 0% | 0% | -2%
COc1cc(NC(=O)c2cc3cc4ccc(C)cc4nc3o2)cc(OC)c1OC | 18% | ? | -3% | -1% | -4% | /

Reprinted from the part before: 4 compounds, then new ones.
SMILES | miR-21 FLuc | Nrf2 block | Glioma ERSR ind | Nrf2 ARE act | A549 tox | PTAP TSG101 blk
O=C(c1cc(S(=O)(=O)N2CCCCC2)ccc1F)N1CCC2(CC1)OCCO2 | -5% | 4% | -2% | -1% | 3% | -5%
CCC1OC2(C)C(O)C(/C=C/C=C/C=C/c3oc(=O)cc(OC)c3C)OC1(C)C2OC(C)=O (stereo not drawn) | / | / | 0% | / | / | /
CCn1nc(C)c(CN2CCCC(C(=O)c3cccc(OC(C)C)c3)C2)c1C (stereo not drawn) | 19% | 10µM* | -2% | 0% | 0% | -2%
COc1cc(NC(=O)c2cc3cc4ccc(C)cc4nc3o2)cc(OC)c1OC | 18% | ? | -3% | -1% | -4% | /
COC(=O)C1=C(c2ccc(OCc3ccccc3)cc2)C[C@@H]2CC[C@H]1N2C(=O)NCCN1CCOCC1 | / | 1% | -3% | 0% | 2% | -2%
COC(=O)C1=C(c2ccc(-c3ccccc3)c(F)c2)C[C@@H]2CC[C@H]1N2C(=O)NC1CCCCC1 | / | 18µM* | -6% | 0% | ? | -2%
COC(=O)C1=C(c2ccc(OCc3ccccc3)cc2)C[C@@H]2CC[C@H]1N2C(=O)NC1CCN(Cc2ccccc2)CC1 | / | 21µM* | -3% | -2% | 21µM* | -1%
COC(=O)C1=C(c2cccc(OCc3ccccc3)c2)C[C@@H]2CC[C@H]1N2C(=O)NCCOc1ccc(OC)cc1 | / | 15µM* | -5% | 0% | -7% | -7%
COC(=O)C1=C(c2ccc(Cl)c(C(F)(F)F)c2)C[C@@H]2CC[C@H]1N2C(=O)NCCOc1ccccc1Cl | / | 23µM* | 2% | -3% | ? | 0%
COC(=O)C1=C(c2ccc(F)cc2F)C[C@@H]2CC[C@H]1N2C(=O)NC1CCCCC1 | / | 6% | -4% | -1% | -4% | -1%
COC(=O)C1=C(c2ccc(Cl)c(C(F)(F)F)c2)C[C@@H]2CC[C@H]1N2C(=O)NCCNC(C)=O | / | 23% | 0% | 0% | 0% | -2%
Cc1ccc(C)c(S(=O)(=O)c2nnn3c2nc(N2CCCC2)c2sccc23)c1 | -13% | ? | -2% | 0% | 3% | /
CC(Oc1ccc(Br)cc1)C(=O)N(Cc1nc(-c2ccccc2)no1)C(C)C (stereo not drawn) | 30% | ? | -4% | 0% | -21% | /
C[C@H](N)C(=O)c1ccccc1 | / | / | -4% | / | / | /
